The values below are quoted from earlier work in US6806377B1, “Preparation of metallocenes carrying a cyclopentadiene comprising a basic donor group” (The University of Leeds, priority 1999, dated 2004).

For the data set the following is noted: background statement on the known anti-tumour drug; cited from earlier work.

For the substance titanocene dichloride, the solubility entry was “low solubility”.
